Patent US20170056336A1 (published 2017)

Test system: genes regulated by FL-AR and AR-V7 in LNCaP95 cells
Experiment: Gene expression analysis (quantitative real-time RT-PCR) in LNCaP95 cells
Format: cell-based, human
[1] = LNCaP95 cells, in response to androgen, Compound A 35 uM

With `CNC(=O)c1ccc(N2C(=S)N(c3ccc(C#N)c(C(F)(F)F)c3)C(=O)C2(C)C)cc1F` [enzalutamide, 4-(3-(4-cyano-3-(trifluoromethyl)phenyl)-5,5-dimethyl-4-oxo-2-thioxoimidazolidin-1-yl)-2-fluoro-N-methylbenzamide] as the compound, how does the “levels of UBE2C transcripts” value (LNCaP95 cells treated with androgen) read?
Its value is “increased”.

And the “BEZ-235-induced levels of PSA transcript” value (LNCaP95 cells, absence of androgen, with BEZ-235)?
Its value is “not”.

And the “expression of FKBP5” value [1]?
Its value is “inhibited”.

And the “expression of KLK3” value [1]?
Its value is “inhibited”.

What about the “expression of TMPRSS2” value [1] of the same compound?
The value was “inhibited”.
